Target: Adenosine receptor A3 (Homo sapiens, UniProt P0DMS8)
Assay: Positive allosteric modulator activity in wild type human A3AR opioid receptor stably expressed in human HEK293 cell membrane assessed as increase in CI-IB-MECA induced [35S]GTPGAgammaS binding to receptor at 10 uM preincubated for 1 hrs with CI-IB-MECA further incubated with [35S]GTPGAgammaS for …
Format: cell membranes
Conditions: filed as positive allosteric modulator, time 3.0 hrs

Chains of the proteins cited; added tags and fusions are not shown.
UniProt P0DMS8, whole entry: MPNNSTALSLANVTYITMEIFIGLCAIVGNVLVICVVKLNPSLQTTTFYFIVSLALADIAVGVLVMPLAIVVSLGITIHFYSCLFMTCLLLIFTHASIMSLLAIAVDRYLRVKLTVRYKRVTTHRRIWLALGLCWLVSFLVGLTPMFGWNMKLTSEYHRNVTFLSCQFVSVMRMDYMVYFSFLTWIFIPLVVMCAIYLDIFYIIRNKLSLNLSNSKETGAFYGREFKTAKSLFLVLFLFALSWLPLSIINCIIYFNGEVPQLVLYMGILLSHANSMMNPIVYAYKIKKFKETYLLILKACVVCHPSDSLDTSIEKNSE

Activity: 50%
SMILES: OC1CCCC(c2nc3c(Nc4ccc(Cl)c(Cl)c4)nc4ccccc4c3[nH]2)CC1 (racemic; 34)

From ChEMBL document CHEMBL5096242
